Only a part is listed here, and it is no random draw. Active and inactive are the calls of the source.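 How the source made its calls: active means mean luciferase reporter signal, scaled so untreated is 0 and the glycosylation-blocking control 100, at or above a set limit in every replicate; inconclusive means mean reaches the limit but not every replicate does; inactive means mean below the limit.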
test: D54 reporter luminescence gain compounds – D54 ERlucT cells, set 2, N-linked glycosylation inhibitor project, primary screen (AID 588692); details: D54 ERlucT glycosylation luciferase reporter, 24 h; at 12.5 µM; stronger effect = higher value; percent of 100 nM tunicamycin response;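 further: luciferase carries N-glycosylation sites so blocking glycosylation raises the light; 0% = median of neutral control wells and 100% = median of 100 nM tunicamycin wells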

Structure (SMILES)	reporter increase
CCOP(=O)(Nc1cccc2ccccc12)OCC	inactive: 0.669%
COc1cc(C2NCCC3(OCCO3)C2(C)C)cc(OC)c1OC (centres undefined)	inactive: -1.26%
CCCOP(=S)(Nc1nc(N)cc(=O)[nH]1)OCCC	inactive: -0.387%
Cc1ccc(NCCc2c([N+](=O)[O-])cc([N+](=O)[O-])cc2[N+](=O)[O-])cc1	inactive: 0.12%
Nc1cccc2c([As](=O)(O)O)cccc12	inactive: 3.32%
O=[As](O)(c1cccc(O)c1)c1cccc(O)c1	inactive: 0.512%
Cc1cccc(OCC(=O)OC2CN3CCC2CC3)c1 (centres undefined)	inactive: -0.007%
CS(=O)(=O)c1ccc(Cl)c(NC(=O)COC(=O)C(O)(c2ccccc2)c2ccccc2)c1	inactive: -0.432%
COc1cc(C(=O)NCC2(N3CCOCC3)CCCCC2)cc(Cl)c1OC(C)C	inactive: -7.85%
O=[As](O)(O)c1cccnc1	inactive: 3.38%
O=C(OC1CN2CCC1CC2)c1ccc(Cl)cc1 (centres undefined)	inactive: -3.27%
CC1(CBr)Cn2c(nc3ccccc3c2=O)S1 (centres undefined)	inactive: 2.39%
CC(C)/C=N\N=C(\N)N[N+](=O)[O-]	inactive: 0.972%
CN(C(=O)Cc1ccc(Cl)c(Cl)c1)[C@@H]1CCCC[C@H]1N1CCCC1	inactive: -4.19%
COc1ccccc1CNC(=O)COC(=O)C(O)(c1ccccc1)c1ccccc1	inactive: -0.474%
CC(C)(C)C(=O)NC(Sc1ncccn1)C(Cl)(Cl)Cl (centres undefined)	inactive: -1.15%
O=P1(N(CCCl)CCCl)NCCC(C(F)(F)F)O1 (centres undefined)	inactive: 2.21%
Clc1n[nH]nc1-c1nn[nH][15n]1	inactive: -0.152%
CN(CCCl)Cc1cc(Cl)c(NC2=NCCN2)c(Cl)c1	inactive: -2.71%
CCOP(=O)(Nc1ccc(C)cn1)OCC	inactive: 0.668%
CCOP(=O)(NC(=NC(C)c1ccccc1)NC(C)c1ccccc1)OCC (centres undefined)	inactive: 1.64%
O=P1(Nc2ccccn2)COc2ccccc2OC1	inactive: 0.796%
CCC1=CC2Cc3nc4ccc(Cl)cc4c(N)c3C(C1)C2 (centres undefined)	inactive: -1.26%
O=P1(Nc2ccc(Br)cn2)COc2ccccc2OC1	inactive: -1.07%
NS(=O)(=O)c1cccc(NC(=O)COC(=O)C(O)(c2ccccc2)c2ccccc2)c1	inactive: -2.08%
Cc1ccc(OCC(=O)OC2CN3CCC2CC3)cc1 (centres undefined)	inactive: 1.36%
O=[As](O)(c1cccs1)c1cccs1	inactive: 3.03%
Nc1cccc([As](=O)(O)c2ccccc2)c1	inactive: -0.47%
O=P1(Nc2ncccn2)COc2ccccc2OC1	inactive: 2.78%
